# From PubChem BioAssay AID441 (NMMLSC, 2006)
# Sequences of proteins named here, by UniProt entry; tags and fusion partners are left off.
# UniProt P25090, whole entry: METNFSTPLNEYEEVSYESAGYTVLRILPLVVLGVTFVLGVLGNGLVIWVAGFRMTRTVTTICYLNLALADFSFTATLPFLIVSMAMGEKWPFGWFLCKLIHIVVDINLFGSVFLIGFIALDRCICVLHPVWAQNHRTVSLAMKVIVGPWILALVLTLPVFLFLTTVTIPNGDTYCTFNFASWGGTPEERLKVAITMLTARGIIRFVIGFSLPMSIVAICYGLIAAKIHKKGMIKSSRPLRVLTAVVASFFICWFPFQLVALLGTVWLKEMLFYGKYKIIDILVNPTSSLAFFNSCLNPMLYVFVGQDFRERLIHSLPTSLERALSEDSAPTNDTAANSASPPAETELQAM
# This is a selection; strong and weak results do not stand in their true shares. Some results for these compounds are left out of this collection, so the calls shown say nothing about other tests. Activity calls are given as the source filed them. Rule as the data show it: active = inhibition above about 30%; inconclusive = no clear call, values can overlap the other calls; inactive = below that.
# Target: N-formyl peptide receptor 2 (Homo sapiens) (UniProt P25090)
# Experiment: human FPRL1 ligands by binding competition, primary screen, cell-based, FPR counter-screen, flow cytometry (AID 441);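 also: 0% = buffer alone and 100% = receptor blocker peptide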
# Conditions: FPRL1-expressing cells, fluorescent ligand binding inhibition, active compounds read high, concentration not given here
row,SMILES,inhibition
1,O=C(OC1CN2CCC1CC2)C(CO)(c1ccccc1)c1ccccc1 (stereo unspecified),inactive: -0.2%
